Here are results for one substance from article PMC8145572 (Viruses, 2021).

What all share (assay type): cell-based
The test system of experiment [1] is Dengue virus serotype 2 (DENV2), strain New Guinea C. The experiment in a line: Antiviral evaluation. To be noted: HFF-1 cells, MOI 0.1, AUC of viral burden over 2 days.
For experiment [2] the test system is unchanged. The experiment in a line: Combination drug assay UV-4B and IFN, DENV-infected HUH-7 cells, plaque assay. To be noted: day 2, 100 IU/mL.
The test system is the same in experiment [3]. Put plainly: Antiviral evaluation. The conditions noted are these: SK-N-MC cells, MOI 0.1, AUC of viral burden over 4 days.
Experiment [4] has the same test system. The experiment in a line: Antiviral evaluation. To be noted: HUH-7 cells, MOI 0.01, AUC of viral burden over 3 days.
The test system is the same in experiment [5]. The experiment in a line: Combination drug assay UV-4B and IFN, DENV-infected SK-N-MC cells, plaque assay.

Consider interferon-alpha [IFN], for which the EC50 in experiment [1] stood at 163.1 IU/mL; in experiment [3] it was 86.59 IU/mL; in experiment [4], 102.7 IU/mL. Besides, the “reduction of viral titers, monotherapy” value in experiment [2] is listed as 2.5 log10 PFU/mL. The “lowering of peak viral titers, monotherapy” value in experiment [5] (SK-N-MC cells, 100 IU/mL) is 1.4 log10 PFU/mL; in experiment [5] (SK-N-MC cells, 10,000 IU/mL), 2.5 log10 PFU/mL.
